Results taken from PMC5447729 (Frontiers in Pharmacology, 2017).

Protein sequences, listed by entry. Tags and fused reporters are not part of them. Lines headed by an entry give the natural chain unless they say otherwise; changes in a name come on top.
UniProt P37231: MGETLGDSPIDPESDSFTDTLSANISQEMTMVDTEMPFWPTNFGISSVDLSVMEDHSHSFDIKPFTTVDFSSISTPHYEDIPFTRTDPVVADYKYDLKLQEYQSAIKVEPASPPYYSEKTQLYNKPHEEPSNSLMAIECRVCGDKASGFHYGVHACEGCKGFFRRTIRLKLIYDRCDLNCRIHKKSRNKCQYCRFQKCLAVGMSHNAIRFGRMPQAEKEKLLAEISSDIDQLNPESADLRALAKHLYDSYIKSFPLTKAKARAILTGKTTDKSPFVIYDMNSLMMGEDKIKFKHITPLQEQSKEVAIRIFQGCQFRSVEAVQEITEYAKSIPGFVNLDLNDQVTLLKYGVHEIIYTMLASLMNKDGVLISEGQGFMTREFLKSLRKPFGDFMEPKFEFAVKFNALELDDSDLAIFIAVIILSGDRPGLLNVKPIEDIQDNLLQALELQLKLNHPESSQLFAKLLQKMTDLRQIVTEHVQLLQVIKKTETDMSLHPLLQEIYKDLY

Key:
[1] = test system: db/db mice; test: Three-week oral treatment of diabetic db/db mice (FBG, ITT, serum parameters, organ indices); format: in vivo; settings: end of 3-week treatment
Description: All animal experiments were performed according to procedures approved by the Animal Experimentation Ethics Committee of the Beijing Institute of Pharmacology and Toxicology for animal care, handling and termination. Eight-week-old male homozygous C57BLKS/J db/db mice were obtained from the Model Animal Research Centre of Nanjing University (Nanjing, China) and fed a standard mouse diet. Male C57BL/6 mice (4 weeks old) were obtained from the Laboratory Animal Centre of the Beijing Institute of Pharmacology and Toxicology and fed a high-fat, high-sugar diet for 16 weeks to induce diet-induced obesity (DIO). […] Body weight (BW) and fasting blood glucose were recorded regularly during the treatment period. […] Blood glucose was monitored at 0, 30, 60, 90, and 120 min after the oral administration of 1 g kg^−1 dextrose. […]
(§1) Serum triglyceride (TG), cholesterol, free fatty acid (FFA), and glucose levels were measured by using commercial kits (Nanjing Jiancheng Bioengineering Institute, Nanjing, China) according to the manufacturer's instructions. Serum adiponectin, monocyte chemotactic protein 1(MCP1), Interleukin-6 (IL-6), Receptor activator of nuclear factor kappa-B ligand (RANKL), and Adrenocorticotropic Hormone (ACTH) were quantified using a multiplex Luminex assay (Millipore/Linco Research).

[2] = test system: DIO mice; test: Three-week oral treatment of insulin-resistant DIO mice (OGTT, FBG, serum factors, organ indices, liver lipids, histology); format: in vivo; settings: RSG 10 mg kg−1, INT131 30 mg kg−1, especially for INT131
Description: All animal experiments were performed according to procedures approved by the Animal Experimentation Ethics Committee of the Beijing Institute of Pharmacology and Toxicology for animal care, handling and termination. Eight-week-old male homozygous C57BLKS/J db/db mice were obtained from the Model Animal Research Centre of Nanjing University (Nanjing, China) and fed a standard mouse diet. Male C57BL/6 mice (4 weeks old) were obtained from the Laboratory Animal Centre of the Beijing Institute of Pharmacology and Toxicology and fed a high-fat, high-sugar diet for 16 weeks to induce diet-induced obesity (DIO). […] Compounds were dissolved in DMSO and suspended in 0.5% carboxymethylcellulose. Body weight (BW) and fasting blood glucose were recorded regularly during the treatment period. […] Blood glucose was monitored at 0, 30, 60, 90, and 120 min after the oral administration of 1 g kg^−1 dextrose. […]
as §1, with “Research). […]” for “Research).”

[3] = molecular target: T1, hPPARγ2 / hMED1 (Homo sapiens, UniProt P37231); test: Mammalian two-hybrid assay of MED1 recruitment (pACT-hPPARγ2, pBIND-hMED1, pG5-luc); format: cell-based; settings: 0.01 μM, HEK293 and CHO cells
T1 construct: expressed in transfected cells; host or cells: HEK293T (HEK293) and CHO cells

CN(CCOc1ccc(CC2SC(=O)NC2=O)cc1)c1ccccn1 (stereo not shown) [RSG, 5-[[4-[2-[methyl(pyridin-2-yl)amino]ethoxy]phenyl]methyl]-1,3-thiazolidine-2,4-dione]
BAT mass index [1]: increased | liver (hepatic) weight index [1]: increased | BAT index [2]: increase | MED1 recruitment [3]: recruited substantial amounts of MED1
